MITF TRPM1 HTS = activators of MITF-driven TRPM1 promoter activity in SK-MEL-5 cells. AID 588334. SK-MEL-5 TRPM1-promoter luciferase, 24 h; % of positive control, neutral wells = 0. activation, % at 12.5 µM. hit rate 0.75% among 300,000;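 active = mean activation of at least 80% with every replicate also reaching 80%; inconclusive = mean reaches 80% but some replicate falls short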;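 note: 0% = neutral control wells and 100% = parthenolide positive control wells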
Wnt bcat act = activators of Wnt/beta-catenin signaling. Wnt/beta-catenin reporter cell assay, activator, plate reader. activation, % at 9.35 µM. hit rate 1.2% among 300,000. AID 743398; in the data active = activation above about 30%, passing the limit was not always enough; inconclusive = no clear call, values can overlap the other calls;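 note: 0% = neutral control wells and 100% = positive control wells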
esBAF inh = blocks esBAF chromatin remodeling in mouse ES cells; Bmi1-luciferase knock-in reporter, 24 h; 100% = twice the neutral-well signal; reporter increase, % at 12.5 µM; hit rate 2% among 350,000; in the data active = activation above about 40%; inconclusive = no clear call, values can overlap the other calls;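 note: 0% = median of the plate's neutral control wells and 100% = double that signal; a rise in the Bmi1 reporter signal indicates esBAF inhibition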
miR122 inh = inhibitors of miR-122 in Huh7 cells; hit rate 0.3% among 340,000; Huh7 miR-122 Renilla luciferase sensor, 48 h; neutral wells = 0, positive control = 100; AID 602342; activation (reporter increase), % at 12.5 µM;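 active = mean replicate activation score at least 90 and every replicate individually at or above 90; inconclusive = only one of the two criteria met; inactive = neither criterion met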;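 note: higher luciferase means less miR-122 activity so hits act as miR-122 inhibitors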
UUG fidelity = modulators of yeast start codon fidelity, primary screen, whole organism, S. cerevisiae, single point, plate reader; S. cerevisiae UUG-firefly luciferase reporter, luminescence/redox ratio; activity score, % at 18.7 µM; actives 0.13% (n = 350,000); AID 602363, 2012;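 active = replicate mean at a twofold rise or more, about +100% in these data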;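 also: firefly luciferase made from a UUG start codon reports start codon fidelity; reporter light over untreated wells divided by growth signal over untreated wells; some hits fall short of that in this replicate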
PglD inh = PglD (C. jejuni) enzyme inhibition. purified PglD enzyme, DTNB colorimetric CoA detection. inhibition, % at 12.5 µM. hit rate 0.098% among 360,000; in the data active = inhibition above about 16%, passing the limit was not always enough; inconclusive = no clear call, values can overlap the other calls
Ring1 derepress = esBAF inhibition confirmed by Ring1 de-repression; shares compounds with esBAF inh; mouse ESC E14, Ring1 mRNA RT-qPCR fold change; fold change at 33 µM; 550 tested, under 10 active; AID 743176;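 active = Ring1 gene expression raised more than 2-fold over untreated cells in both replicates at either tested dose; inconclusive = only one replicate above 2-fold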;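 note: Ring1 transcript normalised to actin housekeeping signal by TaqMan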
Fgf4 repress = represses Fgf4 in mouse ESCs, confirming esBAF inhibition; shares compounds with esBAF inh; mouse ESC E14, Fgf4 mRNA qPCR fold change; hits give low values; Fgf4 expression fold change at 33 µM; hit rate 4% among 550; AID 743177;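 active = Fgf4 expression under 0.8 fold of control in both repeat measurements at one or both tested doses; inconclusive = under 0.8 fold in just a single repeat measurement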;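 note: Fgf4 transcript normalised to actin in duplex TaqMan qPCR; cells exposed to compound for 24 h before lysis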
Bmi1 derepress = esBAF inhibition confirmed by Bmi1 de-repression; AID 743180; 550 tested, under 10 active; shares compounds with esBAF inh; mouse ESE14 ES cells, Bmi1 mRNA qPCR fold; hits give high values; fold change at 33 µM;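 active = Bmi1 expression fold change above 6 at either tested concentration, seen in replicate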;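 note: higher fold means more Bmi1 de-repression and stronger esBAF inhibition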
A549 cytotox = kills or reduces viability of A549 cells | shares compounds with esBAF inh | A549 cytotoxicity, plate reader | cell viability change % (negative = cytotoxic), % at 25 µM, hits read low | 550 tested, under 10 active | AID 743188; call rule not given here
HepG2 cytotox SP = HepG2 cell cytotoxicity at single point. hit rate 4% among 550. activity change, negative = inhibition, % at 25 µM. shares compounds with esBAF inh. plate reader; hits give low values. AID 743189; in the data active = activity change below about -50%
HEK293 tox SP = kills or reduces viability of HEK293 cells; HEK293 cytotoxicity, plate reader; AID 743190; shares compounds with esBAF inh; hit rate 3% among 550; activity change, negative = inhibition, % at 25 µM, hits read low; in the data active = activity change below about -38%, passing the limit was not always enough
Starred values were filed as active, the others as inactive; u = inconclusive; x = no result; [ ] = remark or other dose. In the library only some 2.8% were active in any assay of this set; here they are far more common.

SMILES	MITF TRPM1 HTS	Wnt bcat act	esBAF inh	miR122 inh	UUG fidelity	PglD inh	Ring1 derepress	Fgf4 repress	Bmi1 derepress	A549 cytotox	HepG2 cytotox SP	HEK293 tox SP
FC(F)Oc1ccccc1/C=N/Nc1nc2ccccc2o1	x	17.3	58.9*	1.9	-18.0	-6.3	1.06	0.973	1.22	1.6	34.7	18.4
Fc1ccccc1/C=N/Nc1nc2ccccc2o1	36.7	22.0	-7.9	-2.4	-16.3	-1.6	x	x	x	x	x	x
CCNC(=O)C[C@H]1CC[C@@H]2[C@H](COc3ccc(NS(=O)(=O)c4ccccc4C)cc3C(=O)N2C)O1	x	x	4.5	3.3[16.7 µM]	-11.9	0.8	x	x	x	x	x	x
COc1ccc(CN(C)C[C@H]2Oc3ccc(NC(=O)C4CCCCC4)cc3CC(=O)N([C@@H](C)CO)C[C@@H]2C)cc1	x	x	-2.2	-5.7[16.7 µM]	1.3	2.6	x	x	x	x	x	x
CCC(=O)Nc1ccc2c(c1)C(=O)N(C)C[C@@H](OC)[C@@H](C)CN(Cc1ccncc1)[C@H](C)CO2	x	x	2.5	x	x	-0.2	x	x	x	x	x	x
C[C@H]1CN([C@@H](C)CO)C(=O)c2cc(NC(=O)CCC(F)(F)F)ccc2O[C@@H]1CN(C)C(=O)NC1CCCCC1	x	x	-8.9	3.1[16.7 µM]	13.2	-0.2	x	x	x	x	x	x
Cc1cccc(S(=O)(=O)N2CC[C@@H]3[C@H](CO)Nc4ccc(C#Cc5cccc(F)c5)cc4[C@@H]32)c1	x	x	2.8	-13.8[16.7 µM]	2.5	3.0	x	x	x	x	x	x
CNc1nc(Cl)nc(Nc2ccccc2)n1	8.4	8.2	x	x	x	x	x	x	x	x	x	x
C=CCNc1nc(Cl)nc(Nc2ccccc2)n1	50.0	-2.2	59.5*	-3.4	-9.6	4.9	1.19	0.998	1.11	3.5	-8.8	-10.4
O=C(Nc1ccccc1F)N1CCCCN2[C@@H](CO)[C@H](c3ccc(-c4cccnc4)cc3)[C@@H]2C1	x	x	x	8.5[16.7 µM]	-13.8	-12.6	x	x	x	x	x	x
COc1ccc(-n2nc(C(=O)NCC(=O)N3CCN(c4ccccc4)CC3)c3ccccc3c2=O)c(OC)c1	97.5*	4.7	37.2	x	-3.3	-3.2	1	0.925	1.05	-10.5	-26.2	-12.1
COc1ccc(-n2nc(C(=O)NCC(=O)N3CCN(c4ccc(F)cc4)CC3)c3ccccc3c2=O)c(OC)c1	10.4	3.0	30.0	-8.2	16.5	-1.6	x	x	x	x	x	x
O=C(C[C@@H]1C[C@@H]2c3cc(NC(=O)Nc4ccccc4F)ccc3O[C@@H]2[C@@H](CO)O1)NCC1CC1	x	x	5.8	-0.7[16.7 µM]	-11.3	0.6	x	x	x	x	x	x
O=C(NCCc1ccc(F)cc1)c1ccc2c(=O)n3c(nc2c1)CCC3	79.9	11.6	54.1*	-0.1	x	x	1.2	0.885	1.5	1.5	-28.6	-7.7
Cn1c(/C(C#N)=C(\O)c2ccc([N+](=O)[O-])s2)nc2ccccc21	12.2	5.2	22.7	-1.8	-5.1	0.1	x	x	x	x	x	x
Cn1c(/C(C#N)=C(\O)c2ccc(Cl)s2)nc2ccccc21	18.3	30.4*	70.3*	11.9	-19.9	0.0	1.4	u	1.63	6.3	7.8	26.8
C[C@@H]1CN([C@@H](C)CO)C(=O)c2cc(NC(=O)C3CCCCC3)ccc2O[C@@H](C)CCCCO[C@@H]1CN(C)C(=O)Cc1ccccc1	x	x	7.4	-0.6[16.7 µM]	27.6	2.5	x	x	x	x	x	x
Oc1ccccc1/C=N/N1CCN(c2ccccn2)CC1	70.6	37.8*	78.4*	-2.0	x	x	1.07	1.08	1.35	-17.6	-9.0	-19.5
CN(CCc1ccccn1)C(=O)CCc1nnc(CCCc2ccccc2)o1	28.0	-1.2	109.9*	-0.9	x	x	0.961	0.941	1.3	-6.7	-6.4	-4.9
CCCN1C[C@@H](C)[C@@H](OC)CN(C)C(=O)c2ccc(NC(=O)CC(F)(F)F)cc2OC[C@@H]1C	x	x	3.7	5.1[16.7 µM]	8.2	-1.6	x	x	x	x	x	x
COc1ccc2c(c1OC)C(=O)N1c3ccccc3SC21 (centres undefined)	42.1	x	78.0*	6.0	-3.5	-8.8	1.03	0.978	1.38	9.0	-23.7	-4.5
COc1ccc2c(c1OC)C(=O)N1c3ccccc3COC21 (centres undefined)	u	x	34.0	-7.6	-5.9	-3.5	x	x	x	x	x	x
O=C(Nc1ccc(Nc2ccccc2)cc1)Nc1ccccc1Cl	101.7*	24.5	70.2*	0.3	-18.4	0.7	1.39	0.82	1.63	-1.0	2.9	-19.3
COCC(=O)N(C)C[C@@H]1Oc2cc(C#C[C@@H](C)O)ccc2S(=O)(=O)N([C@@H](C)CO)C[C@@H]1C	x	x	2.5	0.2[16.7 µM]	1.1	-1.2	x	x	x	x	x	x
COc1ccc(C(=O)O/N=C(/c2cccs2)C(C)(C)C)cc1	-3.6	4.5	3.2	-4.1	10.0	3.4	x	x	x	x	x	x
COc1ccc(C2CC2/C(=N/OC(=O)c2cccs2)c2ccccc2)cc1 (centres undefined)	x	20.0	68.0*	5.7	-0.9	6.4	1.22	0.995	1.61	-7.9	-21.1	-7.2
Nc1ccccc1/C=C/c1ccccc1N	54.5	20.0	111.8*	x	-20.0	-1.8	1.41	0.994	1.77	-4.0	24.4	-7.2
CC(C)NC(=O)Nc1ccc2c(c1)CC(=O)N([C@@H](C)CO)C[C@H](C)[C@@H](CN(C)Cc1ccc(C(=O)O)cc1)O2	x	x	1.3	-5.7[16.7 µM]	-14.3	0.4	x	x	x	x	x	x
COc1cccc(C(=O)Nc2ccc(Cl)c(C(F)(F)F)c2)c1	u	26.6	68.2*	0.9	-6.9	1.8	0.971	0.977	1.91	-1.6	-39.5	-6.1
COc1cc(C(=O)Nc2ccc(Cl)c(C(F)(F)F)c2)cc(OC)c1OC	9.5	-4.7	2.1	2.8	7.2	2.4	x	x	x	x	x	x
CO[C@@H]1CN(C)C(=O)c2ccc(NS(C)(=O)=O)cc2OC[C@H](C)N(C(=O)CC2CC2)C[C@H]1C	x	x	6.1	-2.2[16.7 µM]	-12.7	-6.0	x	x	x	x	x	x
CC(=O)c1c(C)[nH]c(C(=O)OCc2ccc(Br)cc2)c1C	31.1	5.1	63.5*	x	x	x	1.38	1.07	2.03	-7.8	-24.5	-22.0
O=C(Cc1ccccn1)c1ccc(Cl)cc1	104.0*	20.5	100.0*	x	-5.7	1.5	1.16	0.868	1.63	-5.6	2.0	-7.4
CNC[C@@H]1Oc2c(NC(=O)Nc3c(C)noc3C)cccc2C(=O)N([C@@H](C)CO)C[C@H]1C	x	x	-1.3	-5.1[16.7 µM]	-11.2	-2.1	x	x	x	x	x	x
Cn1cccc1C(=O)OCc1ccc(C(C)(C)C)cc1	x	27.4	84.5*	-1.5	6.4	-4.3	1	u	1.97	-0.2	-21.4	-13.4

Compound activity as filed in PubChem.
